Laboratory results: patent publication US9492460B2, “Carbazole compounds useful as bromodomain inhibitors” (Bristol-Myers Squibb Company, priority 2013, dated 2016)

Target: bromodomain BRD4 (44-168), BRD4 (333-460), and BRD4 (1-477 or 44-460) (Homo sapiens, UniProt O60885)
Assay: Time Resolved Fluorescence Resonance Energy Transfer (TR-FRET) binding assay
Conditions: read-out: FRET BRD4 IC50; one of the FRET assays described

Row | SMILES | IC50
1 | Cc1noc(C)c1-c1ccc2c3cc(C(=O)N4C[C@@H](C)O[C@@H](C)C4)ccc3n(CCc3ccccc3)c2c1 (relative stereo) | < 0.5 µM
2 | Cc1noc(C)c1-c1cc(C(N)=O)c2c3ccc(C(C)(C)O)cc3n(C(CCC(F)(F)F)c3ccccn3)c2c1 (single isomer, unassigned) | < 0.05 µM
3 | Cc1noc(C)c1-c1cc(C(N)=O)c2c3ccc(C(C)(C)O)cc3n(C(c3c(F)cc(F)cc3F)C3CCOCC3)c2c1 (single isomer, unassigned) | < 0.05 µM
4 | Cc1noc(C)c1-c1cc(C(N)=O)c2c3ccc(C(C)(C)O)cc3n(C(c3c(F)cccc3F)C3CCOCC3)c2c1 (single isomer, unassigned) | < 0.05 µM
5 | Cc1noc(C)c1-c1cc(C(N)=O)c2c3ccc(C(C)(C)O)cc3n(C(c3ccc(F)cc3F)C3CCOCC3)c2c1 (single isomer, unassigned) | < 0.05 µM
6 | Cc1noc(C)c1-c1cc(C(N)=O)c2c3ccc(C(C)(C)O)cc3n(C(c3ccccc3F)C3CCOCC3)c2c1 (single isomer, unassigned) | < 0.05 µM

Second part, the compound after the results:

Row | IC50 | SMILES
7 | < 0.05 µM | Cc1noc(C)c1-c1cc(C(N)=O)c2c3ccc(C(C)(C)O)cc3n(C(CCC(F)(F)F)CCC(F)(F)F)c2c1
8 | < 0.05 µM | Cc1noc(C)c1-c1cc(C(N)=O)c2c3ccc(C(C)(C)O)cc3n(C(CCC(F)(F)F)c3ccccc3C(F)(F)F)c2c1 (single isomer, unassigned)
9 | < 0.05 µM | Cc1noc(C)c1-c1cc(C(N)=O)c2c3ccc(C(C)(C)O)cc3n(C(CCC(F)(F)F)c3ccccc3Cl)c2c1 (single isomer, unassigned)
